{"sequences": {"note": "The chains behind the UniProt entries cited, without tags or fusion partners. Residues count along the entry.", "UniProt P17787, 26-502": "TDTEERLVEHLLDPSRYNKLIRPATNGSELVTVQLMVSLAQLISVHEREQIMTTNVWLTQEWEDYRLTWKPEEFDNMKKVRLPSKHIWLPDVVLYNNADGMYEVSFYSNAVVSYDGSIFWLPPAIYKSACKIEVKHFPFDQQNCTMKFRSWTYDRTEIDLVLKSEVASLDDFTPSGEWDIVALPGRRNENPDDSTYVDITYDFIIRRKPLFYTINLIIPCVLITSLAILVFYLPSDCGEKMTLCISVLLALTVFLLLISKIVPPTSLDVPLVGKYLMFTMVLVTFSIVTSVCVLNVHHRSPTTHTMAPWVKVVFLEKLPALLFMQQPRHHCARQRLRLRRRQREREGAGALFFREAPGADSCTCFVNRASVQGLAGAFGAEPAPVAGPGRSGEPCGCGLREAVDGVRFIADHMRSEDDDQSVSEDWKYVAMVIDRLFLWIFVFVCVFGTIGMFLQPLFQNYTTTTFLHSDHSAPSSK", "UniProt P43681, 29-627 limits assumed": "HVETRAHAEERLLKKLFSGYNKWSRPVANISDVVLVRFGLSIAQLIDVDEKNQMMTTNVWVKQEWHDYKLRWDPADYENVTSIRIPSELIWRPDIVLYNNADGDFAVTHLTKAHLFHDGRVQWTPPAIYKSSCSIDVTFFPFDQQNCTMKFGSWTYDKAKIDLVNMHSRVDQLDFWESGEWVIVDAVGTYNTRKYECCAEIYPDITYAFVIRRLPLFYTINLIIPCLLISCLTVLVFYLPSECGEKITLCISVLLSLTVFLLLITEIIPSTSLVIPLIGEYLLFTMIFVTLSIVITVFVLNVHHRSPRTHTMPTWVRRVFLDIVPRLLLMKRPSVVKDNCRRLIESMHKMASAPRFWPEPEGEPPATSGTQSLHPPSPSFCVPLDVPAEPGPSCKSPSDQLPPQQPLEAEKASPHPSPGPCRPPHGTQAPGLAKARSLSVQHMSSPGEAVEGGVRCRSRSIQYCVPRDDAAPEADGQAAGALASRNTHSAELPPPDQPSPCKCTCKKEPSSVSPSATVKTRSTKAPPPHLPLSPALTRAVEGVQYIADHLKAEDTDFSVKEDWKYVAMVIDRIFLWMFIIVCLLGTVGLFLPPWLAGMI"}, "source": "paper PMC5097879", "about": "(European journal of medicinal chemistry, 2016)", "origin": "cited, not measured here", "key": {"[1]": {"molecular_target": "HS α4β2-nAChR (Homo sapiens, UniProt P17787+P43681)", "details": "relative to carbamylcholine; ref [8], [9]; cited from earlier work"}, "[2]": {"molecular_target": "LS α4β2-nAChR (Homo sapiens, UniProt P17787+P43681)", "details": "relative to carbamylcholine; ref [8], [9]; cited from earlier work"}}}
{"smiles": "CN1CCC[C@H]1c1cccnc1", "note": "[Nicotine]", "values": [{"measurement": "Agonism HS-α4β2 Efficacy", "setting": "[1]", "value": "124 ± 8.5", "unit": "%"}, {"measurement": "Agonism LS-α4β2 Efficacy", "setting": "[2]", "value": "70 ± 5.9", "unit": "%"}]}
